# Measurements as given in patent publication US20160038446A1, “METHOD FOR IMPEDING SKIN INFLAMMATORY RESPONSE TO AN ENERGY INJURY” (priority 2014, published 2016).
# System: skin inflammatory response to an energy injury
# Assay: Effectiveness of the burn treatment as a function of pH and concentration of the lactic acid
# Details: around 2.35 pH to 2.34 pH
structure (smiles),measurement,value
"C[C@H](O)C(=O)O [L-Lactic Acid, L-lactic acid]",effectiveness for the treatment,ideal
